Test results as given in patent publication US11975005B2, “Treatment of respiratory diseases” (TIANLI BIOTECH PTY LTD, priority 2015, dated 2024).

Sequences of proteins named here, by UniProt entry; tags and fusion partners are left off. A change or cut given only in a name is not applied to a line headed by its entry.
UniProt P49674: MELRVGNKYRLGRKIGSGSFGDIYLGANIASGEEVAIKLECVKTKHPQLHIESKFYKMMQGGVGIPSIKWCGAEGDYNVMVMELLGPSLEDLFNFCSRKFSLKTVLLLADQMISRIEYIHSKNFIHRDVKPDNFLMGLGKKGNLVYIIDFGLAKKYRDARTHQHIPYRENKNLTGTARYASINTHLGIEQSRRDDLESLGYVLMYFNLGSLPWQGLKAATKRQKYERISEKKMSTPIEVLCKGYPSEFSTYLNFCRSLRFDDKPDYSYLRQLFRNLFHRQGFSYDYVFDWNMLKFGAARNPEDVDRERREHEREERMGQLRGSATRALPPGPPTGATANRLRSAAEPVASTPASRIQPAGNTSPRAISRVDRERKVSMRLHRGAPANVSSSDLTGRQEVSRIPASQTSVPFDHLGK
UniProt P48730: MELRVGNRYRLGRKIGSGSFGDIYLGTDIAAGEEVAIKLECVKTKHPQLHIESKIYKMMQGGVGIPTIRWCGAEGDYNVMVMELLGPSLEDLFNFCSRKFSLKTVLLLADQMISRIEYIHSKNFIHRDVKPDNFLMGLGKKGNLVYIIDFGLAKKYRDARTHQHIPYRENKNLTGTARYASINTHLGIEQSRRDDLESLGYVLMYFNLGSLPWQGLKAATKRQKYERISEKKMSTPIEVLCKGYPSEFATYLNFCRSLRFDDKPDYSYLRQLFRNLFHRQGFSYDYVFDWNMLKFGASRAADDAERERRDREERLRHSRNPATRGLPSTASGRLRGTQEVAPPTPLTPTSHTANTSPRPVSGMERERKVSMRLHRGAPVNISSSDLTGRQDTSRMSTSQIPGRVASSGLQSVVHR

Tests used:
CK1ε = CK1ε (Homo sapiens, UniProt P49674); test: CK1ε inhibition (IC50); assay type: biochemical
CK1δ = CK1δ (Homo sapiens, UniProt P48730); conditions: cited from earlier work

**Q.** Which results are given for `NC(=O)c1ccc(-c2nc(-c3ccc4c(c3)OCO4)c(-c3ccccn3)[nH]2)cc1` [SB431542]?
**A.** IC50 (CK1ε): 646 nM; IC50 (CK1δ): 920 nM
